We go through one molecule from ChEMBL document CHEMBL1133464, “Ligands for glutamate receptors: design and therapeutic prospects” (J Med Chem, 2000).

Protein sequences, listed by entry. Tags and fused reporters are not part of them. Lines headed by an entry give the natural chain unless they say otherwise; changes in a name come on top.
UniProt Q13255: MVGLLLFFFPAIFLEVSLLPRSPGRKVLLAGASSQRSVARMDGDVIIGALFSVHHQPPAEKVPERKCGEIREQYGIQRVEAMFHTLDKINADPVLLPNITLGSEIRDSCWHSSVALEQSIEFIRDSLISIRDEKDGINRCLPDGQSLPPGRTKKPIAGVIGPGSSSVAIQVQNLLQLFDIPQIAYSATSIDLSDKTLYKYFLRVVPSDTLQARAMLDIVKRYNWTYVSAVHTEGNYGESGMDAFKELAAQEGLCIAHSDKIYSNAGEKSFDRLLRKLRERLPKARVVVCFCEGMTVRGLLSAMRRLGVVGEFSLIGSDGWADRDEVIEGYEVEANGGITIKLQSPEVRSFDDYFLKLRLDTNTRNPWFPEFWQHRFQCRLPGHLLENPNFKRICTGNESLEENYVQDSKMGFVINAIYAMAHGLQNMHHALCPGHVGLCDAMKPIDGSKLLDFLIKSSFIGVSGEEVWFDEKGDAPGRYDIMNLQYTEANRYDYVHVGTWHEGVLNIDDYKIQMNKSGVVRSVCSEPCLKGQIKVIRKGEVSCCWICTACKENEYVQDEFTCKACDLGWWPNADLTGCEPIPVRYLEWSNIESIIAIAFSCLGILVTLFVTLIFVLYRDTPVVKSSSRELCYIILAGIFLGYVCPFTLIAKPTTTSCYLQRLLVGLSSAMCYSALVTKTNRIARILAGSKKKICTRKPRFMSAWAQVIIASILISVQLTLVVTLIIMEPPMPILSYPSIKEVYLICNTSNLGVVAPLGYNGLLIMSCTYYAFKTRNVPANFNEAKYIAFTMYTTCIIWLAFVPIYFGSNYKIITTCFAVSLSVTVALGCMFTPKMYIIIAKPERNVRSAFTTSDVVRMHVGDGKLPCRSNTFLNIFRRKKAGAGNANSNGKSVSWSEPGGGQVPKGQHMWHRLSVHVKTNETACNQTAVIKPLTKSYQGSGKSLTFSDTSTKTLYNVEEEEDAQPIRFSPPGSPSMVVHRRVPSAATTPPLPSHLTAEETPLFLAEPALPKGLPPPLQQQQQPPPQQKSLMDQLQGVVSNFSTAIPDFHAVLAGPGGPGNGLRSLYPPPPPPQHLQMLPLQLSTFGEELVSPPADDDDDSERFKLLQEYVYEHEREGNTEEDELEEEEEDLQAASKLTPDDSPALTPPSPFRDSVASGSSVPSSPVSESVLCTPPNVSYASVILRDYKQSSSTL
UniProt Q14832: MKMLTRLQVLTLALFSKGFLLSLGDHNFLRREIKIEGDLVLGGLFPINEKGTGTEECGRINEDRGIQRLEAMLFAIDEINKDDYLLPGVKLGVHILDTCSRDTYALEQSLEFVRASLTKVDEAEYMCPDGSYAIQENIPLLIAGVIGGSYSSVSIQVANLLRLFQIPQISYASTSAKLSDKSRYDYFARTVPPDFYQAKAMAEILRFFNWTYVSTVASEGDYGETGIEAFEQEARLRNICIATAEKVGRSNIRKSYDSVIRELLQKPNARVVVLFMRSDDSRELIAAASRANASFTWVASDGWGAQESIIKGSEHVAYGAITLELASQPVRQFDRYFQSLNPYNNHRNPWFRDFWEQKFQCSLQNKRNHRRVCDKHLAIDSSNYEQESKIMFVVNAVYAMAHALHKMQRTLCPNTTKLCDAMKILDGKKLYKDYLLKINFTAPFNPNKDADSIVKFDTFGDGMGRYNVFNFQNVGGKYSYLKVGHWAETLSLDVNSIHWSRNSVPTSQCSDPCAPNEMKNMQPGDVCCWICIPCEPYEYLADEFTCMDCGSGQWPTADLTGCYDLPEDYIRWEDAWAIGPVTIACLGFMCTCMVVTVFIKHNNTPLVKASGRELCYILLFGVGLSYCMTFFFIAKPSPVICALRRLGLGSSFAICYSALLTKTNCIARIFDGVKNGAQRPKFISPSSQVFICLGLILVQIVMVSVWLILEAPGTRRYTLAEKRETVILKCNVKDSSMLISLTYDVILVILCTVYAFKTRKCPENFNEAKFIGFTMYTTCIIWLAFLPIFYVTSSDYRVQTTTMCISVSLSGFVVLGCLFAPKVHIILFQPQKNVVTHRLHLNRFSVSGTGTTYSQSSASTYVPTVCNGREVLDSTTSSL

Experiment [1] concerns the target Metabotropic glutamate receptor 1 (Homo sapiens, UniProt Q13255). As to the kind of experiment: Agonist potency against cloned human metabotropic glutamate receptor 1. It counts as functional.
Experiment [2] concerns the target Metabotropic glutamate receptor 3 (Homo sapiens, UniProt Q14832). As to the kind of experiment: Agonist potency against cloned Metabotropic glutamate receptor 3 (mGluR-3). The class given is functional.

The structures appear in SMILES notation.

The Ki is the equilibrium dissociation constant of an inhibitor or competing ligand from its target. Low values mean higher affinity, high ones lower affinity. Take `N[C@@]1(C(=O)O)CC[C@@H](C(=O)O)C1`: the inhibitory constant (Ki) came to 42 µM in experiment [1] and 98 µM in experiment [2].
